Reference: patent US11160807B1, “Methods, compositions and devices for treating cancer with illudofulvenes” (AF Chemicals, LLC, priority 2018, dated 2021)

Test system: NCI DTP 60 cell line panel
Test: NCI DTP 60 Cell Line screen: Growth Inhibition (GI50), Total Growth Inhibition (TGI), Lethal Concentration (LC50/LD)
Assay type: cell-based, human
Details: mean over NCI DTP 60 cell line panel; lethal concentration dose (cytotoxic effect)
Protocol: In particular, an algorithm based on the obtained in vitro cell culture values (i.e. growth inhibition values (GI50), or the total growth inhibition (TGI), or the lethal concentration (LC50)) of cell lines (e.g., NCI60 cells) subjected to treatment with an illudofulvene, and gene expression is determined in these same cell lines (e.g., by microarray analysis, reverse transcriptase polymerase chain reaction (RT-PCR), quantitative real-time PCR (qPCR), or next generation sequencing). After normalization, genes with, e.g., a Pearson correlation coefficient greater than about 0.5 or below about −0.5 to one of the obtained in vitro cell culture values, can be classified as biomarkers of sensitivity or resistance, respectively. A probability or significance value can also be calculated for the correlation between the obtained in vitro cell culture values (i.e. growth inhibition values (GI50), or the total growth inhibition (TGI), or the lethal concentration (LC50)) and the normalized expression of a specific gene.
One can determine the growth inhibition (GI50), total growth inhibition (TGI), or lethal concentration (LC50) for a drug for each of the cell lines in the NCI DTP 60 cell line panel. One can use these 3 values to search for correlations against all gene expressions in all cell lines using the NCI's publicly available CELL MINER Software. […]

CC1=C2C(=C[C@@](C)(CO)[C@@H]2O)C(=O)[C@](C)(O)C12CC2 [Illudin S, illudin S, reference compound] was tested, and the “Mean LD50 cytotoxic” value was 511 nM.
